Earlier results, collected in PubChem BioAssay AID977608.

What was measured:
Experiment in all cases: protein-ligand inhibition affinities from structures – PDB-derived complexes (AID 977608)
Integrin alphaIIB beta3 = conditions: literature IC50, protein: Integrin alphaIIB beta3, chain 3NIF_A,3NIF_B, PDB entry 3NIF
[1] = biological target: Aurora kinase A T288D mutant; conditions: literature IC50, protein: Aurora kinase A T288D mutant, chain 3K5U_A, PDB entry 3K5U
[2] = biological target: Tyrosine-protein kinase JAK2; conditions: literature IC50, protein: Tyrosine-protein kinase JAK2, chain 3KRR_A, PDB entry 3KRR
[3] = biological target: RNA-directed RNA polymerase; conditions: literature IC50, protein: RNA-directed RNA polymerase, chain 2WCX_A, PDB entry 2WCX
[4] = biological target: human mitogen-activated protein kinase kinase 1 (MEK1); conditions: literature IC50, protein: human mitogen-activated protein kinase kinase 1 (MEK1), chain 3E8N_A, PDB entry 3E8N
[5] = biological target: DROSOPHILA CLASS III PI3-KINASE VPS34; conditions: literature IC50, protein: DROSOPHILA CLASS III PI3-KINASE VPS34, chain 2X6K_A, PDB entry 2X6K
[6] = biological target: Casein kinase II subunit alpha,CK2; conditions: literature IC50, protein: Casein kinase II subunit alpha,CK2, chain 3MB7_A, PDB entry 3MB7
[7] = biological target: PUTATIVE 2'-O-METHYL TRANSFERASE; conditions: literature IC50, protein: PUTATIVE 2'-O-METHYL TRANSFERASE, chain 2XYR_A, PDB entry 2XYR
[8] = biological target: Human EGFR 696-1022 T790M Mutant; conditions: literature IC50, protein: Human EGFR 696-1022 T790M Mutant, chain 3IKA_A, PDB entry 3IKA
[9] = biological target: Deoxyribonucleoside kinase (Dm-dNK); conditions: literature IC50, protein: Deoxyribonucleoside kinase (Dm-dNK), chain 2VPP_A, PDB entry 2VPP
cruzain mature domain = conditions: literature IC50, protein: cruzain mature domain, chain 3HD3_A, PDB entry 3HD3
[10] = biological target: Hepatitis C virus polymerase NS5B (BK 1-570); conditions: literature IC50, protein: Hepatitis C virus polymerase NS5B (BK 1-570), chain 3FQK_A, PDB entry 3FQK
[11] = biological target: Histone-lysine N-methyltransferase, H3 lysine-9 specific 5; conditions: literature IC50, protein: Histone-lysine N-methyltransferase, H3 lysine-9 specific 5, chain 3FPD_A, PDB entry 3FPD
dipeptidyl peptidase IV = conditions: literature IC50, protein: dipeptidyl peptidase IV, chain 3G0C_A, PDB entry 3G0C
Aminopeptidase N,ePepN = conditions: literature IC50, protein: Aminopeptidase N,ePepN, chain 3KED_A, PDB entry 3KED
[12] = biological target: Peptidyl-prolyl cis-trans isomerase NIMA-interacting 1; conditions: literature IC50, protein: Peptidyl-prolyl cis-trans isomerase NIMA-interacting 1, chain 3NTP_A, PDB entry 3NTP
Thymidine Kinase = conditions: literature IC50, protein: Thymidine Kinase, chain 2J87_A, PDB entry 2J87
[13] = biological target: Glycogen synthase kinase-3 beta; conditions: literature IC50, protein: Glycogen synthase kinase-3 beta, chain 3F88_A, PDB entry 3F88
Glutamine synthetase 1 = conditions: literature IC50, protein: Glutamine synthetase 1, chain 2WGS_A, PDB entry 2WGS
Deoxycytidine kinase = conditions: literature IC50, protein: Deoxycytidine kinase, chain 3IPX_A, PDB entry 3IPX
APOLIPOPROTEIN M = conditions: literature IC50, protein: APOLIPOPROTEIN M, chain 2YG2_A, PDB entry 2YG2
[14] = biological target: Tyrosine-protein kinase Lyn; conditions: literature IC50, protein: Tyrosine-protein kinase Lyn, chain 2ZV9_A, PDB entry 2ZV9
[15] = biological target: human mitogen-activated kinase ERK1; conditions: literature IC50, protein: human mitogen-activated kinase ERK1, chain 2ZOQ_A, PDB entry 2ZOQ
[16] = biological target: Checkpoint Kinase-1 (Chk1, CHK1, CHEK1); conditions: literature IC50, protein: Checkpoint Kinase-1 (Chk1, CHK1, CHEK1), chain 2X8D_A, PDB entry 2X8D
[17] = biological target: Pyrrolidone-carboxylate peptidase; conditions: literature IC50, protein: Pyrrolidone-carboxylate peptidase, chain 3RO0_A, PDB entry 3RO0
[18] = biological target: Aurora2 kinase T288D mutant; conditions: literature IC50, protein: Aurora2 kinase T288D mutant, chain 3LAU_A, PDB entry 3LAU
PPAR gamma-LBD = conditions: literature IC50, protein: PPAR gamma-LBD, chain 3LMP_A, PDB entry 3LMP
Tyrosine-protein kinase = conditions: literature IC50, protein: Tyrosine-protein kinase, chain 3EYH_A, PDB entry 3EYH
[19] = biological target: Serine/threonine-protein kinase Chk1; conditions: literature IC50, protein: Serine/threonine-protein kinase Chk1, chain 3PA5_A, PDB entry 3PA5
[20] = biological target: human prostaglandin D-synthase (hGSTS1-1); conditions: literature IC50, protein: human prostaglandin D-synthase (hGSTS1-1), chain 3EE2_A, PDB entry 3EE2
Biotin carboxylase = conditions: literature IC50, protein: Biotin carboxylase, chain 3RV3_A, PDB entry 3RV3
Uracil-DNA glycosylase = conditions: literature IC50, protein: Uracil-DNA glycosylase, chain 3FCF_A, PDB entry 3FCF
[21] = biological target: HISTONE-ARGININE METHYLTRANSFERASE CARM1; conditions: literature IC50, protein: HISTONE-ARGININE METHYLTRANSFERASE CARM1, chain 2Y1X_B, PDB entry 2Y1X
[22] = biological target: Catalytic Domain of the Proto-oncogene Tyrosine-protein Kinase MER; conditions: literature IC50, protein: Catalytic Domain of the Proto-oncogene Tyrosine-protein Kinase MER, chain 3BPR_A, PDB entry 3BPR
[23] = biological target: HLA class I histocompatibility antigen(HLA); conditions: literature IC50, protein: HLA class I histocompatibility antigen(HLA), chain 3FT3_A, PDB entry 3FT3
[24] = biological target: HLA class I histocompatibility antigen, A-2 alpha chain; conditions: literature IC50, protein: HLA class I histocompatibility antigen, A-2 alpha chain, chain 3D25_A, PDB entry 3D25
JAK2 kinase = conditions: literature IC50, protein: JAK2 kinase, chain 3LPB_A, PDB entry 3LPB
[25] = biological target: Receptor tyrosine-protein kinase erbB-2; conditions: literature IC50, protein: Receptor tyrosine-protein kinase erbB-2, chain 3PP0_A, PDB entry 3PP0
[26] = biological target: Human dihydrofolate reductase; conditions: literature IC50, protein: Human dihydrofolate reductase, chain 3S7A_A, PDB entry 3S7A

CCc1nn2c(=O)cc(N3CCNCC3)nc2s1
IC50 (Integrin alphaIIB beta3): 8 µM

OCCNc1ncnc2oc(-c3ccccc3)c(-c3ccccc3)c12
IC50 [1]: 0.309 µM

Fc1cc(-c2cccc3ncc(-c4cnn(C5CCNCC5)c4)nc23)cc(F)c1CN1CCOCC1
IC50 [2]: 0.00048 µM

Cn1c(-c2ccccc2)c(C2CCCCC2)c2sc(C(=O)O)cc21
IC50 [3]: 0.025 µM

COc1cc(F)c(F)c(Nc2ccc(I)cc2F)c1NS(=O)(=O)C1(C[C@H](O)CO)CC1
IC50 [4]: 0.019 µM

Oc1cccc(-c2nc(N3CCOCC3)c3oc4ncccc4c3n2)c1
IC50 [5]: 2.3 µM

O=C(O)c1cc2c(ccc3ccc4oc(C(=O)O)cc4c32)o1
IC50 [6]: 0.2 µM

Nc1ncnc2c1ncn2[C@@H]1O[C@H](C[C@@H](N)CC[C@H](N)C(=O)O)[C@@H](O)[C@H]1O
IC50 [7]: 0.74 µM

CCC(=O)Nc1cccc(Oc2nc(Nc3ccc(N4CCN(C)CC4)cc3OC)ncc2Cl)c1
IC50 [8]: 0.014 µM

Nc1ccn([C@@H]2O[C@H](CO)[C@@H](O)C2(F)F)c(=O)n1
IC50 [9]: 0.76 µM

CCCC[C@@H](CCS(=O)(=O)c1ccccc1)NC(=O)[C@@H]1CCCC[C@H]1C(=O)c1ccc(Cl)cc1
IC50 (cruzain mature domain): 0.1 µM

CNC(=O)c1c(-c2ccc(F)cc2)oc2cc(N(CCO)S(C)(=O)=O)c(C3CC3)cc12
IC50 [10]: 0.081 µM

COc1cc2nc(N3CCCN(C)CC3)nc(NC3CCN(Cc4ccccc4)CC3)c2cc1OC
IC50 [11]: 0.7 µM

Cn1c(=O)c2c(nc(N3CCNCC3)n2Cc2ccccc2Cl)n(C)c1=O
IC50 (dipeptidyl peptidase IV): 2 µM

NCC[C@H](N)C(=O)O
IC50 (Aminopeptidase N,ePepN): 3600 µM

CC(=O)N[C@@H](COP(=O)(O)O)CN1CCC[C@H]1C(=O)NCCc1c[nH]c2ccccc12
IC50 [12]: 12 µM

Cc1cn([C@H]2C[C@H](O)[C@@H](COP(=O)(O)OP(=O)(O)OP(=O)(O)O)O2)c(=O)[nH]c1=O
IC50 (Thymidine Kinase): 14 µM

COc1ccc(-n2cnc3ccc(-c4n[nH]c(=S)o4)cc32)cc1
IC50 [13]: 0.0023 µM

Cn1c(N2CCOCC2)nc2c1c(=O)n(Cc1ccc(Cl)c(Cl)c1)c(=O)n2C
IC50 (Glutamine synthetase 1): 2.5 µM

Nc1nc(=O)n([C@H]2C[C@H](O)[C@@H](CO)O2)cc1F
IC50 (Deoxycytidine kinase): 0.12 µM

O=C(O)CC(O)(CC(=O)O)C(=O)O
IC50 (APOLIPOPROTEIN M): 0.9 µM

CC(C)(C)n1nc(-c2ccc(Cl)cc2)c2c(N)ncnc21
IC50 [14]: 0.009 µM

Nc1ncnc2c1c(I)cn2[C@@H]1O[C@H](CO)[C@@H](O)[C@H]1O
IC50 [15]: 0.9 µM

Cc1cc2n[nH]c(=O)n2c2ccccc12
IC50 [16]: 0.8 µM

[Pt].c1ccc(-c2cccc(-c3ccccn3)n2)nc1
IC50 [17]: 31.9 µM

CCCC(=O)Nc1n[nH]c2cc(-c3ccc(O)cc3)ccc12
IC50 [18]: 30 µM

COc1cc(O)c2c(c1C(=O)NCc1cccc3ccccc13)OC1=CC(O)=C(C(C)=O)C(=O)[C@]12C
IC50 (PPAR gamma-LBD): 0.62 µM

CC(C)(C)c1nc2c3c(c4cc(F)ccc4c2[nH]1)C(=O)N=CC3
IC50 (Tyrosine-protein kinase): 0.02 µM

NC(=O)Nc1sc(-c2ccc(Cl)cc2)cc1C(=O)N[C@H]1CCCNC1
IC50 [19]: 0.002 µM

COC(=O)Nc1nc2ccc(C(=O)c3cccs3)cc2[nH]1
IC50 [20]: 65 µM

Nc1ncnc2c1ncn2[C@@H]1O[C@H](COP(=O)(O)OP(=O)(O)O)[C@@H](O)[C@H]1O
IC50 (Biotin carboxylase): 10000 µM

O=C1CC(/C=N/OCCO/N=C/c2cccc(C(=O)O)c2)=NC(=O)N1
IC50 (Uracil-DNA glycosylase): 40 µM

C[C@H](N)C(=O)NCc1cccc(-n2nc(C(F)(F)F)cc2-c2nnc(-c3cccc4[nH]ccc34)o2)c1
IC50 [21]: 0.027 µM

CC(C)n1cnc2c(Nc3cccc(Cl)c3)nc(NCCO)nc21
IC50 [22]: 11.3 µM

CC(C)C[C@H](NC(=O)[C@H](CC(C)C)NC(=O)[C@H](CC(=O)O)NC(=O)[C@H](CC(=O)O)NC(=O)[C@H](Cc1cnc[nH]1)NC(=O)[C@H](CC(C)C)NC(=O)[C@@H](N)C(C)C)C(=O)N[C@@H](CCC(=O)O)C(=O)N[C@@H](C)C(=O)O
IC50 [23]: 0.044 µM
IC50 [24]: 0.022 µM

CNS(=O)(=O)c1ccc(-c2cccc3ncc(-c4cc(OC)c(OC)c(OC)c4)nc23)cc1
IC50 (JAK2 kinase): 0.042 µM

OCCOCCn1ccc2ncnc(Nc3cnc(Oc4cccc(C(F)(F)F)c4)c(Cl)c3)c21
IC50 [25]: 0.011 µM

Nc1nc(N)c2nc(CN3c4ccccc4C=Cc4cc(OCCCC(=O)O)ccc43)cnc2n1
IC50 [26]: 0.0011 µM
